# Reference: ChEMBL document CHEMBL1131989, “Biological activity of fragments and analogues of the potent dimeric opioid peptide, biphalin” (Bioorg Med Chem Lett, 1999)
# The chains behind the UniProt entries cited, without tags or fusion partners.
# UniProt P41143, whole entry: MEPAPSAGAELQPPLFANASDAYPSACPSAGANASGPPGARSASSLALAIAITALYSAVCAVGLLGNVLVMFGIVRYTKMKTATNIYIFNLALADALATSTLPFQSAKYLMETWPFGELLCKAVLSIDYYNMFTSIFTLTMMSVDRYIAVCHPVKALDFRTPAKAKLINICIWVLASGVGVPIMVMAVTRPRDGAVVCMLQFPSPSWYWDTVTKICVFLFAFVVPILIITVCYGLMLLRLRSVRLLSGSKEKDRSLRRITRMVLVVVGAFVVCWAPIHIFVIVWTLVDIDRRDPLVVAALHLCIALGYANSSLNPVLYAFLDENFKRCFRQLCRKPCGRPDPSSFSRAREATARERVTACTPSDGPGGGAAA
# Biological target: Delta-type opioid receptor (Homo sapiens, UniProt P41143)
# Experiment: In vitro binding affinity towards Opioid receptor delta 1 was determined using […]
smiles,measurement,value
C[C@@H](NC(=O)[C@@H](N)Cc1ccc(O)cc1)C(=O)NCC(=O)N[C@@H](Cc1ccccc1)C(=O)NNC(=O)[C@H](Cc1ccccc1)NC(=O)CNC(=O)[C@@H](C)NC(=O)[C@@H](N)Cc1ccc(O)cc1 [BIPHALIN],IC50,2.6 nM
